# Results reported in PubChem BioAssay AID1159606 (Sanford-Burnham Center for Chemical Genomics, 2016).
# The entries are a selection whose mix differs from that of the whole data set. The source made the active and inactive calls. Rule as the data show it: active = inhibition above about 50%; inactive = the rest.
# Experiment: inhibitors of TWEAK-Fn14 signaling, primary screen, luciferase reporter cells, uHTS (AID 1159606)
# Conditions: TWEAK-stimulated Fn14 reporter cells, luciferase luminescence, 8 h; at 10 µM; hits give high values
row,SMILES,inhibition
1,Nc1cc(N)c2nonc2c1[N+](=O)[O-],inactive: 11.2%
2,Oc1ccccc1CNc1ccccn1,inactive: -1.94%
3,O=C(NC(Sc1ccncn1)C(Cl)(Cl)Cl)c1ccccc1 (configuration not stated),inactive: -0.94%
4,O=[N+]([O-])C1C(O)C(O)C([N+](=O)[O-])C(O)C1O (configuration not stated),inactive: 10.7%
5,NC(=O)c1cc([N+](=O)[O-])cc([N+](=O)[O-])c1N,inactive: 7.26%
6,CN(C(=O)Cc1ccc(Cl)c(Cl)c1)[C@H]1CCCC[C@H]1N1CCCC1,inactive: -5.58%
7,Cc1ccc(N/C(=N/P(=O)(N2CCOCC2)N2CCOCC2)N2CCOCC2)cc1,inactive: -1.86%
8,COc1ccccc1OP(=O)(Nc1ccc(C)cn1)Oc1ccccc1OC,inactive: 2.18%
9,Cc1ccc(OP(=O)(Nc2nccs2)Oc2ccc(C)cc2)cc1,inactive: -6.3%
10,Clc1ccc(Cl)c(NC2=NCC(CBr)S2)c1 (configuration not stated),inactive: 3.13%
11,CN1CCCC(OC(=O)C(c2ccccc2)c2ccccc2)C1 (configuration not stated),inactive: 13.9%
12,CCN(N=Nc1nonc1N)c1nonc1N,inactive: -10.3%
13,Nc1cccc2ccc([As](=O)(O)O)cc12,inactive: 28.4%
14,O=C(O)c1ccccc1[As](=O)(O)O,inactive: 2.21%
15,CC(=O)Nc1ccc([As](=O)(O)O)cc1,inactive: -3.58%
16,CCCC1OP(N)(=O)OCC1CC (configuration not stated),inactive: 7.48%
17,CN(C)P(=O)(N(C)C)n1c(Nc2ccccc2)nnc1-c1ccccc1,inactive: -21.9%
18,O=P(Nc1nc2ccc(Cl)cc2s1)(c1ccccc1)c1ccccc1,inactive: 8.65%
19,CCOP(=O)(Nc1ccccc1)OCC,inactive: 2.14%
20,Cc1cc(SC(NC(=O)c2ccc(F)cc2)C(Cl)(Cl)Cl)ncn1 (configuration not stated),inactive: 21.3%
21,CN(C(=O)Cc1ccc(Cl)c(Cl)c1)[C@H]1CCCC[C@@H]1N1CCCC1,inactive: -20.4%
22,Cc1ccc(NP(=O)(Oc2ccccc2F)Oc2ccccc2F)nc1,inactive: -2.71%
23,CC(C)c1ccc(OP(=O)(Nc2ccccn2)Oc2ccccc2F)cc1 (configuration not stated),inactive: -4.45%

row,SMILES,inhibition
1,COC(=O)C1(C)COP(=O)(N2CCCCCC2)OC1 (configuration not stated),inactive: 22.1%
2,ClCCSc1nnc(-c2cccnc2)o1,inactive: -2.13%
3,CCN(CC)C(=S)SC(NC=O)C(Cl)(Cl)Cl (configuration not stated),inactive: 14.1%
4,O=C(OC1CN2CCC1CC2)c1cccc2[nH]cnc12 (configuration not stated),inactive: 13.8%
5,CC(C)NC(=O)NP(=O)(Oc1ccccc1)Oc1ccccc1,inactive: 0.4%
6,O=[N+]([O-])c1cc([N+](=O)[O-])c(-c2ccn[nH]2)s1,inactive: 28.6%
7,O=[As](O)(c1ccc(O)cc1)c1ccccc1O,inactive: -11.5%
8,C[As](=O)(O)c1cccc(C(=O)O)c1,inactive: 14.8%
9,COc1cc(C(=O)NCC2(N3CCOCC3)CCCCC2)ccc1OCC(C)C,inactive: 0.54%
10,O=[N+]([O-])c1ccc(-c2cc([N+](=O)[O-])c(O)c([N+](=O)[O-])c2)cc1,inactive: 13.2%
11,Cc1ccc2nc3c(c(C)c2c1)CC(C(Cl)Cl)S3 (configuration not stated),inactive: -20.4%
12,Cc1ccc(OP(=O)(Nc2ccc([N+](=O)[O-])cn2)Oc2ccc(C)cc2)cc1,inactive: -6.12%
13,[N-]=[N+]=NC1CCCCC1NC(=O)c1cc([N+](=O)[O-])cc([N+](=O)[O-])c1 (configuration not stated),inactive: -9.23%
14,COc1ccc(N/C(=N/P(=O)(N2CCOCC2)N2CCOCC2)N2CCOCC2)cc1,inactive: -7.62%
15,O=[N+]([O-])c1cc(Oc2ccc([N+](=O)[O-])cc2C(F)(F)F)cc([N+](=O)[O-])c1,inactive: 19%
16,O=C(OC1CN2CCC1CC2)C12CC3CC(CC(C3)C1)C2 (configuration not stated),inactive: 5.2%
17,Cc1cc(=O)[nH]c(N[N+](=O)[O-])n1,inactive: -8%
18,Cc1c2c(nc3ccccc13)SC(C(Cl)Cl)C2 (configuration not stated),inactive: -17.9%
19,COc1ccc2nc(NP(=O)(c3ccccc3)c3ccccc3)sc2c1,inactive: 0.98%
20,COc1cc(I)ccc1[As](=O)(O)O,inactive: -12.6%
21,O=P1(N(CCCl)CCCl)OCCCN1CCCl (configuration not stated),inactive: -9.61%
22,O=P1(N(CCCl)CCCl)Nc2ccccc2N1,inactive: -3.69%
23,CCOC(=O)c1ccc(NC(=O)C(C)(CCl)SC)cc1 (configuration not stated),inactive: -14.8%

row,SMILES,inhibition
1,O=C(OC1CN2CCC1CC2)c1cccc([N+](=O)[O-])c1 (configuration not stated),inactive: 7.86%
2,CSc1ccc(Nc2c([N+](=O)[O-])cc([N+](=O)[O-])cc2[N+](=O)[O-])cc1,active: 63.5%
3,CCC(C)N(CC(C)C)C(=S)SC(NC(C)=O)C(Cl)(Cl)Cl (configuration not stated),inactive: -44.4%
4,COP1(=S)c2c(C)nn(CCC#N)c2N=C(c2ccc(F)cc2)N1C (configuration not stated),inactive: 15.3%
5,COC(=O)C1(C)COP(=O)(N2CCCC2)OC1 (configuration not stated),inactive: -4.08%
6,O=C(COc1ccccc1)OC1CN2CCC1CC2 (configuration not stated),inactive: -23.1%
7,O=C(Nc1ccncc1[N+](=O)[O-])c1ccc([N+](=O)[O-])cc1[N+](=O)[O-],inactive: 45.4%
8,O=C(O)C(=O)c1ccc(N(CCCl)CCCl)cc1,inactive: -14.4%
9,CCOC(=O)Nc1cccc([As](=O)(O)O)c1,inactive: 4.37%
10,O=[N+]([O-])c1ccc(Nc2ccc(Oc3ccc([N+](=O)[O-])cc3[N+](=O)[O-])cc2)c([N+](=O)[O-])c1,inactive: -15.8%
11,Cc1cc(SC(NC=O)C(Cl)(Cl)Cl)ncn1 (configuration not stated),inactive: -11.9%
12,O=P(Nc1ccccn1)(c1cccc2ccccc12)c1cccc2ccccc12,inactive: -15.1%
13,CC1CCNP(=O)(N(CCCl)CCCl)O1 (configuration not stated),inactive: 5.31%
14,O=C(O)C(O)c1ccc(N(CCCl)CCCl)cc1 (configuration not stated),inactive: -15.7%
15,CCOC(=O)Nc1ccc([As](=O)(O)O)c(O)c1,inactive: -7.42%
16,CCCCOc1ccc(C(=O)NCC2(N3CCCCC3)CCCCC2)cc1OC,inactive: -14.1%
17,Cc1cc(SC(NC(=O)c2ccccc2)C(Cl)(Cl)Cl)nc(C(C)C)n1 (configuration not stated),inactive: 24.1%
18,COP(=O)(OC)N1CC1c1ccccc1 (configuration not stated),inactive: 2.6%
19,O=P1(Nc2ncccn2)COc2ccccc2OC1,inactive: 0.09%
20,Cc1ccc(S(=O)(=O)N(CCCN)CCCc2c(C)nc(N)[nH]c2=O)cc1,inactive: -3.87%
21,NS(=O)(=O)c1cccc(NC(=O)COC(=O)C(O)(c2ccccc2)c2ccccc2)c1,inactive: -9.44%
22,O=P1(Nc2ccc(Br)cn2)COc2ccccc2OC1,inactive: -9.33%
23,Cc1ccc(OCC(=O)OC2CN3CCC2CC3)cc1 (configuration not stated),inactive: 2.87%

row,SMILES,inhibition
1,O=[As](O)(c1cccs1)c1cccs1,inactive: 6.97%
2,Nc1cccc([As](=O)(O)c2ccccc2)c1,inactive: -20%
3,Cc1nn(-c2ccccc2)c2c1P(=O)(N1CCOCC1)N(C)C(c1ccccc1)=N2 (configuration not stated),inactive: 11.7%
4,Cc1ccc(C(=O)OC2CN3CCC2CC3)cc1 (configuration not stated),inactive: 13.8%
5,CC1CCC(C(C)C)C(OP(=O)(Nc2ccccn2)c2ccccc2)C1 (configuration not stated),inactive: 26.3%
6,O=C(/C=C/c1ccccc1)OC1CN2CCC1CC2 (configuration not stated),inactive: 0.65%
7,CCCC1OP(=O)(Nc2ccccc2)OCC1CC (configuration not stated),inactive: 0.1%
8,CN(C)C1(CNC(=O)c2ccc(S(C)(=O)=O)cc2)CCCCC1,inactive: -21.6%
9,COc1ccccc1CNC(=O)COC(=O)C(O)(c1ccccc1)c1ccccc1,inactive: 5.77%
10,CC1(CBr)Cn2c(nc3ccccc3c2=O)S1 (configuration not stated),inactive: -7.51%
11,CN(C(=O)Cc1ccc(Cl)c(Cl)c1)[C@@H]1CCCC[C@H]1N1CCCC1,inactive: 12.5%
12,CC(C)/C=N\N=C(\N)N[N+](=O)[O-],inactive: 2.09%
13,CN(CCCl)Cc1cc(Cl)c(NC2=NCCN2)c(Cl)c1,inactive: -6.48%
14,CCOP(=O)(Nc1ccc(C)cn1)OCC,inactive: 6.46%
15,CCC1=CC2Cc3nc4ccc(Cl)cc4c(N)c3C(C1)C2 (configuration not stated),inactive: 4.89%
16,O=P1(Nc2ccccn2)COc2ccccc2OC1,inactive: -21.3%
17,CCOP(=O)(NC(=NC(C)c1ccccc1)NC(C)c1ccccc1)OCC (configuration not stated),inactive: 26.2%
18,Clc1n[nH]nc1-c1nn[nH][15n]1,inactive: -10.3%
19,O=P1(N(CCCl)CCCl)NCCC(C(F)(F)F)O1 (configuration not stated),inactive: -16.7%
20,CC(C)(C)C(=O)NC(Sc1ncccn1)C(Cl)(Cl)Cl (configuration not stated),inactive: -14.8%
21,CCCOP(=S)(Nc1nc(N)cc(=O)[nH]1)OCCC,inactive: -11.1%
22,Cc1ccc(NCCc2c([N+](=O)[O-])cc([N+](=O)[O-])cc2[N+](=O)[O-])cc1,inactive: 41.7%
23,Nc1cccc2c([As](=O)(O)O)cccc12,inactive: 23.9%

row,SMILES,inhibition
1,COc1cc(C2NCCC3(OCCO3)C2(C)C)cc(OC)c1OC (configuration not stated),inactive: 29.6%
2,CCOP(=O)(Nc1cccc2ccccc12)OCC,inactive: 2.84%
3,COc1cc(C(=O)NCC2(N3CCOCC3)CCCCC2)cc(Cl)c1OC(C)C,inactive: 16%
4,O=[As](O)(O)c1cccnc1,inactive: 2.62%
5,CS(=O)(=O)c1ccc(Cl)c(NC(=O)COC(=O)C(O)(c2ccccc2)c2ccccc2)c1,inactive: -26.8%
6,O=C(OC1CN2CCC1CC2)c1ccc(Cl)cc1 (configuration not stated),inactive: -1.78%
7,O=[As](O)(c1cccc(O)c1)c1cccc(O)c1,inactive: 24%
8,Cc1cccc(OCC(=O)OC2CN3CCC2CC3)c1 (configuration not stated),inactive: 10.2%
9,NC(=O)Nc1ccc([As](=O)(O)O)cc1,inactive: 11.2%
10,CN(C)C(=O)c1cc([N+](=O)[O-])cc2c1-c1c(cc([N+](=O)[O-])cc1[N+](=O)[O-])C2=O,active: 60.2%
11,O=[N+]([O-])c1ccc2c(c1)nnn2O,inactive: 1.65%
12,N#CCCN(C(=O)COC(=O)C(O)(c1ccccc1)c1ccccc1)c1ccc(F)cc1,inactive: -5.24%
13,CN(C(=O)Cc1ccccc1)[C@@H]1CC[C@]2(CCCO2)C[C@H]1N1CCCC1,inactive: 5.84%
14,CCOP1(=S)c2c(C)nn(CCC#N)c2N=C(c2ccc(F)cc2)N1C (configuration not stated),inactive: -21.9%
15,CS(=O)(=O)c1cc([N+](=O)[O-])c2no[n+]([O-])c2c1,inactive: 3.73%
16,CCOP1(=S)c2c(C)nn(CCC#N)c2N=C(c2ccccc2F)N1C (configuration not stated),inactive: 7.21%
17,O=P(Nc1nccs1)(c1ccccc1)c1nc2ccccc2s1 (configuration not stated),inactive: -7.93%
18,O=P(Nc1nccs1)(Oc1ccccc1)Oc1ccccc1,inactive: -5.13%
19,O=C(O)COc1ccc([As](=O)(O)O)cc1[N+](=O)[O-],inactive: -0.61%
20,Nc1ccccc1[As](=O)(O)c1ccccc1,inactive: 0.71%
